## Ab-14 light chain CDR variants: yeast mating affinities

Data: MIT Lincoln Laboratory AlphaSeq set, Engelhart et al. 2022, doi:10.1038/s41597-022-01779-4, as distributed in FLAb.

All variants were tested on one target, the spike HR2 peptide PDVDLGDISGINAS (SARS-CoV-2).

Parent: Ab-14, a human scFv built as VH, a 15-residue (Gly4Ser)3 linker, VL. Only the CDRs of the light chain vary.
VH: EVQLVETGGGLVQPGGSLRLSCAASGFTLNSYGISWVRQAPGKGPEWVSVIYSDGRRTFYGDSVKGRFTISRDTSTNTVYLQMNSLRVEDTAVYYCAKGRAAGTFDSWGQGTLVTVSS
VL: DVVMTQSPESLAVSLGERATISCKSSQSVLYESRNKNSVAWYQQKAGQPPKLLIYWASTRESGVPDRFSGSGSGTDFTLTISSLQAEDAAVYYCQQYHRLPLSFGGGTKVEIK

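Phage display of a naive human antibody library on the peptide gave the parent. In library AAYL50, one, two or three CDR residues were substituted; doubles and triples were drawn at random. The assay is AlphaSeq: two haploid yeast populations carry antibody and antigen on their surface. Binding brings cells together so that they mate, and sequencing counts the barcode pairs among the diploids. Scores were corrected for input abundance and mapped to Kd with protein pairs of known affinity run in the same pool. Mating was done three times.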

Positions count from residue 1 of the parent VL; S28M puts M in place of S. This list gathers variants with a substitution at Y97 (VL, numbered from residue 1). Affinities are written as log10 Kd with Kd in nM; a lower number is a better binder. A mean of the replicates is given; it leaves out those without a signal. An entry "ND" has no value in the source: the pair was not observed among the diploids in that replicate. This suggests poor binding but is not conclusive.

S28M R34Y Y97T: 1.99, 2.16, 2.07 (mean 2.07).
N35Q V39E Y97I: ND, ND, ND.
S26D T59A Y97N: ND, ND, ND.
N35W Y97S L100K: 4.47, ND, ND.
N35K N37P Y97F: ND, ND, ND.
Y31E Y97L L102W: 0.58, 0.79, 0.75 (mean 0.71).
T59V R60T Y97V: ND, ND, ND.
Q95K Y97N L102I: ND, 4.48, 4.60 (mean 4.54).
S26Y E32D Y97L: ND, ND, ND.
N35Q T59P Y97F: ND, ND, ND.
Q27H R60D Y97H: ND, ND, ND.
S33R V39N Y97S: ND, ND, ND.
W56P Q96W Y97W: ND, 5.30, ND.
S58V Y97K: 3.17, ND, ND.
V39W Y97N S103K: ND, ND, 3.42.
K24F S38L Y97E: ND, ND, ND.
Q95R Y97W H98W: ND, ND, ND.
Y97G L100M: ND, ND, ND.
K36L Y97K P101Q: ND, ND, 4.75.
S28K Y97E: ND, 4.39, ND.
N37M Y97L S103N: 1.27, 1.45, 1.51 (mean 1.41).
Y97G R99P L100H: ND, ND, ND.
V29N Y97I: ND, ND, ND.
S28Y T59R Y97V: ND, ND, ND.
S26Q V29A Y97R: ND, ND, 4.34.
A40H Y97S: ND, ND, 3.30.
S28M S38P Y97I: 3.93, ND, ND.
S62W Q96C Y97I: 0.99, 1.11, 1.11 (mean 1.07).
T59F Q96S Y97A: ND, ND, ND.
A40R Y97C L102A: ND, ND, ND.
R34T Y97I: 1.61, 1.63, 1.79 (mean 1.67).

Nonspecific signal, from three strains lacking the peptide, appeared in 18% of pairings of library AAYL50, centred on 4.19 (5% of these signals below 2.99); values are not corrected for it. In this assay the parent's reference entry averaged 0.65; its copy inside this library read 1.68.